According to patent US20250353891A1 (MEDIMMUNE LIMITED, priority 2022, published 2025):
Starred links: 1 amine or outer side, 2 acyl side, 3 side chain; linkers in the order of their positions; H or OH if unused. Non-standard residues stand in square brackets, D forms with d. Residues, ends and D or L forms follow the SMILES beside them. Groups on a side chain read outwards from the residue. *: point of attachment. C20 diacid = O=C(O)CCCCCCCCCCCCCCCCCCC(=O)*; γGlu = O=C(O)[C@H](CCC(=O)[*:2])N[*:1]; αMeF = C[C@](N)(Cc1ccccc1)C(=O)O; AEEA = NCCOCCOCC(=O)O; Aib = CC(C)(N)C(=O)O

By UniProt entry, the sequences of proteins in these tests, tags left out. Residues count along the entry.
UniProt P47871, 26-477: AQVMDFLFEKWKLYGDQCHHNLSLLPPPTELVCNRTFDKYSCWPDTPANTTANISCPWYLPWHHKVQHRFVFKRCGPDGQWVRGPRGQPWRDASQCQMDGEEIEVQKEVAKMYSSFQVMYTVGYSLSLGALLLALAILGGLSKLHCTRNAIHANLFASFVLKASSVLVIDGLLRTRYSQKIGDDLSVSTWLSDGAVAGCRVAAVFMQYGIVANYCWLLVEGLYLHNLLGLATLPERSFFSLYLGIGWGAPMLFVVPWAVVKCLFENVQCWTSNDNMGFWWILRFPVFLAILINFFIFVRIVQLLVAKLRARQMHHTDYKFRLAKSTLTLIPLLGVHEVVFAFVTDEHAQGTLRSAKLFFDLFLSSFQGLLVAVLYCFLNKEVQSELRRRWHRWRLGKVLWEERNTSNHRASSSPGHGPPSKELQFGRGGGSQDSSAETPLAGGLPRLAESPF
UniProt P43220, 24-463: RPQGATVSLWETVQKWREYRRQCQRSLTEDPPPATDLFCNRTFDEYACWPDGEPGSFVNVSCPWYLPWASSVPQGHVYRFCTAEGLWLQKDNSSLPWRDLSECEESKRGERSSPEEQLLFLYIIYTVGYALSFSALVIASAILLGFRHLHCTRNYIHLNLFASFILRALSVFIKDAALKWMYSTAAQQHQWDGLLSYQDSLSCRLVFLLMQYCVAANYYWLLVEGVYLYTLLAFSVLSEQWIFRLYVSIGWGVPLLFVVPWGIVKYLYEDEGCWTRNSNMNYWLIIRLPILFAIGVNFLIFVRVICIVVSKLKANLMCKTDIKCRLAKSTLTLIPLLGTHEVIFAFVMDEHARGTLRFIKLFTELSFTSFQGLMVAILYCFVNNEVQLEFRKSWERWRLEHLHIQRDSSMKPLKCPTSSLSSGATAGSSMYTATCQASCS

Columns and labels:
[1] = Pharmacokinetic profiling in dog (i.v.); conditions: in vivo, iv, 10 nmol/kg
Source text: (§1) Selected test peptides (n=8) were profiled for pharmacokinetic (PK) properties in the mouse after single intravenous (i.v.) or subcutaneous (s.c.) dose. A subset (n=4) meeting the acceptance criteria was subsequently profiled in the dog (single i.v. dose) and non-human primate (single i.v. and s.c. dose). […] Low-binding plasticware containers were used during preparation and sample handling to avoid non-specific binding.
Blood of each sample was transferred into plastic micro centrifuge tubes containing EDTA-K2, inverted several times for proper mixing of contents and then placed on wet ice.
(§2) Samples analysis: Samples were analyzed by LC-MS/MS. Calibration standards were injected at the beginning and end of each batch and the determined concentration for each prepared standard was used to construct a calibration curve. Plasma and dose aliquot sample concentrations were determined from the plasma calibration curve.
Data analysis: Plasma concentration data was analyzed by non-compartmental analysis (NCA) using Phoenix Winnonlin v. 8.3.3.33. Linear trapezoidal rule was used for increasing values and log trapezoidal rule was used for decreasing values, applying uniform weighting for lambda_z calculations. Subcutaneous bioavailability was calculated as the ratio AUC(s.c.)0-inf/AUC(i.v.)0-inf. Reported values (Table 18) represent the mean of the individual estimates.

[2] = molecular target: human glucagon receptor (hGCGR) (Homo sapiens, UniProt P47871); assay: cAMP production (HTRF) in CHO cells expressing hGCGR; format: cell-based; design: expressed in transfected cells; conditions: hGluc-R EC50 (pM)
Experimental: (§3) Cells were re-suspended in assay buffer at a batch-dependent optimized concentration (typically hGLP-1R cells at 1×10^5 cells/mL, hGCGR cells at 2×10^5 cells/mL).
(§4) Cells were added to the assay plate using a multidrop dispenser and incubated at room temperature for 30 minutes before measuring the cAMP level using a cAMP dynamic 2 homogeneous time resolved Fluorescence (HTRF) kit (Cisbio Bioassays #62AM4PEJ) following the two-step protocol as per manufacturer's recommendations. In brief, anti-cAMP cryptate (donor fluorophore) and cAMP-d2 (acceptor fluorophore) were made up separately by diluting each 1 in 20 in conjugate and lysis buffer provided in the kit. Anti-CAMP cryptate was added to all wells of the assay plate, followed by cAMP-d2 added to all wells except non-specific binding (NSB) wells (to which conjugate and lysis buffer was added).
(§5) Data was transformed to % Delta F as described in the manufacturer's guidelines and analyzed by 4-parameter logistic fit to determine EC50 values.

[3] = Pharmacokinetic profiling in non-human primate (i.v., s.c.); conditions: cynomolgus monkey, in vivo, iv, 10 nmol/kg
Source text: as §1
Non-human primate: PK was studied in non-naïve male cynomolgus monkeys. After dosing, PK samples were collected from the femoral vein. Blood of each sample was transferred into plastic micro centrifuge tubes containing EDTA-K2, inverted several times for proper mixing of contents and then placed on wet ice. […]
as §2
Data analysis: Plasma concentration data was analyzed by non-compartmental analysis (NCA) using Phoenix Winnonlin v. […] Subcutaneous bioavailability was calculated as the ratio AUC(s.c.)0-inf/AUC(i.v.)0-inf. […]

[4] = molecular target: human GLP-1 receptor (hGLP-1R) (Homo sapiens, UniProt P43220); assay: cAMP production (HTRF) in CHO cells expressing hGLP-1R; format: cell-based; design: expressed in transfected cells; conditions: for % Relative Potency Ratio: % GLP-1R activity relative to GLP-1 / % GlucR activity relative to glucagon; for EC50: hGLP-1R EC50 (pM)
Experimental: as §3, §4, §5

CC(C)C[C@H](NC(=O)[C@H](Cc1c[nH]c2ccccc12)NC(=O)[C@H](CCC(N)=O)NC(=O)[C@@H](NC(=O)[C@H](Cc1ccccc1)NC(=O)[C@H](CC(=O)O)NC(=O)[C@H](CCCNC(=N)N)NC(=O)[C@H](C)NC(=O)[C@H](CCCNC(=N)N)NC(=O)[C@H](CCCCNC(=O)COCCOCCNC(=O)COCCOCCNC(=O)CC[C@H](NC(=O)CCCCCCCCCCCCCCCCCCC(=O)O)C(=O)O)NC(=O)[C@@H](NC(=O)[C@H](CC(=O)O)NC(=O)[C@H](CC(C)C)NC(=O)[C@](C)(Cc1ccccc1)NC(=O)[C@H](CCCCN)NC(=O)[C@H](CO)NC(=O)[C@@H](NC(=O)[C@H](CC(=O)O)NC(=O)[C@H](CO)NC(=O)[C@@H](NC(=O)[C@H](Cc1ccccc1)NC(=O)[C@@H](NC(=O)CNC(=O)[C@H](CCC(N)=O)NC(=O)C(C)(C)NC(=O)[C@@H](N)Cc1c[nH]cn1)[C@@H](C)O)[C@@H](C)O)C(C)C)[C@@H](C)O)C(C)C)C(=O)N[C@@H](CC(C)C)C(=O)N[C@@H](CCC(=O)O)C(=O)NC(C)(C)C(=O)NCC(=O)O [Peptide 195, H-Aib-Q-G-T-F-T-S-D-V—S-K-αMePhe-L-D-T-K-R-A-R-D-F-V-Q-W-L-L-E-Aib-G-acid]
half-life [1]: 78 h | EC50 ([2]; Table 6, peptides modified at position 17, geometric mean): 94.6 pM | half-life [3]: 49 h | % Relative Potency Ratio ([4]; Table 6): 2.2 | EC50 [4]: 86 pM

CC[C@H](C)[C@H](NC(=O)C(C)(C)NC(=O)[C@H](CCC(N)=O)NC(=O)[C@@H](NC(=O)[C@H](Cc1ccccc1)NC(=O)[C@H](CC(=O)O)NC(=O)[C@H](CCCCNC(=O)COCCOCCNC(=O)COCCOCCNC(=O)CC[C@H](NC(=O)CC[C@H](NC(=O)CCCCCCCCCCCCCCCCCCC(=O)O)C(=O)O)C(=O)O)NC(=O)[C@H](C)NC(=O)[C@H](C)NC(=O)[C@H](CCCNC(=N)N)NC(=O)[C@H](CO)NC(=O)[C@H](CC(=O)O)NC(=O)[C@H](CC(C)C)NC(=O)[C@](C)(Cc1ccccc1)NC(=O)[C@H](CCCCN)NC(=O)[C@H](CO)NC(=O)[C@@H](NC(=O)[C@H](CC(=O)O)NC(=O)[C@H](CO)NC(=O)[C@@H](NC(=O)[C@](C)(Cc1ccccc1)NC(=O)[C@H](CO)NC(=O)CNC(=O)[C@H](Cc1c[nH]cn1)NC(=O)C(C)(C)NC(=O)[C@@H](N)Cc1c[nH]cn1)[C@@H](C)O)C(C)C)C(C)C)C(=O)N[C@@H](C)C(=O)N[C@@H](CC(N)=O)C(=O)N[C@H](C(=O)NCC(=O)NCC(N)=O)[C@@H](C)O [Peptide 235] (H-H[Aib]HGS[αMeF]TSDVSK[αMeF]LDSRAAK([AEEA-AEEA-γGlu-γGlu-C20 diacid])DFVQ[Aib]IANTGG-NH2; N-terminus assumed)
EC50 ([2]; Table 7, peptides modified at position 20, geometric mean): 1260 pM | % Relative Potency Ratio ([4]; Table 7): 26.3 | EC50 [4]: 94.8 pM
